# The list shows a part of the results, in another mix than the full data. Activity calls are given as the source filed them.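 The calls were made as follows: active = activity above about 14% (limit read from the data; passing the limit was not always enough); inactive = the rest.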
# Chains of the proteins cited; added tags and fusions are not shown.
# UniProt P20393, whole entry, looked up: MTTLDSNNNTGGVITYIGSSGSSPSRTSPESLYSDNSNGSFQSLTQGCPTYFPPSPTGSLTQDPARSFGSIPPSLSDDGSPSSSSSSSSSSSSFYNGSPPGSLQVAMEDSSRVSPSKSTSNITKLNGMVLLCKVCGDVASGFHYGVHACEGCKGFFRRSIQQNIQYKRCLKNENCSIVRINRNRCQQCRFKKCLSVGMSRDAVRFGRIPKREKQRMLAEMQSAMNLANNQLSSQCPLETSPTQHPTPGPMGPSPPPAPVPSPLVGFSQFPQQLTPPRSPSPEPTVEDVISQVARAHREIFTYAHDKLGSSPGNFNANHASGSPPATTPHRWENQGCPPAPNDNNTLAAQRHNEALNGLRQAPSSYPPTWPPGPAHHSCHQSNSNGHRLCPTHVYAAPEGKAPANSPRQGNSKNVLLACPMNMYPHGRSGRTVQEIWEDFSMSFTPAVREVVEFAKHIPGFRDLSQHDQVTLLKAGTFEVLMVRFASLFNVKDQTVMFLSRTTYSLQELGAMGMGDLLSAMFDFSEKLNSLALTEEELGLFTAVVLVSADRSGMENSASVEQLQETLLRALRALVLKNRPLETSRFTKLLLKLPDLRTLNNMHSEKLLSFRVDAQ
# Molecular target: Nuclear receptor subfamily 1 group D member 1 (Homo sapiens) (UniProt P20393)
# Assay: modulators of Rev-erb alpha DNA binding, primary screen, biochemical, FITC-DNA, fluorescence polarization, uHTS (AID 1259318);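 also: 0% = DMSO wells with 35 nM protein and 100% = DMSO wells with 750 nM protein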
# Settings: Rev-erbα–FITC-DNA binding, 90 min, at 10 µM, stronger effect = higher value
row,SMILES,activity
1,O=C(NCC1(N2CCOCC2)CCCCC1)c1cc2ccccc2o1,inactive: -1.36%
2,Cc1cc(C)cc(N(C(=O)c2ccccc2)C2CCN(C(=O)OC(C)(C)C)CC2)c1,inactive: -0.38%
3,O=c1[nH]c2ccccc2n1C1CCN(C(c2ccccc2OC(F)(F)F)c2nnnn2C2CCCCC2)CC1 (stereo not given),inactive: -2.39%
4,O=C(NCC1(N2CCCCC2)CCCCC1)c1ccc(Cl)nc1,inactive: -1.45%
5,CCCCn1nnnc1C(c1ccc(OC)cc1)N1CCC(n2c(=O)[nH]c3ccccc32)CC1 (stereo not given),inactive: -2.79%
6,CCOC(=O)N1CCC(Nc2ccc(OC)cc2)CC1,inactive: 10.9%
7,COc1ccc(Cl)cc1C(=O)NCC1(N2CCOCC2)CCCCC1,inactive: -1.67%
8,O=C(OC1CN2CCC1CC2)C1c2ccccc2Oc2ccccc21 (stereo not given),inactive: 2.43%
9,O=c1[nH]c2ccccc2n1C1CCN(C(c2cc3ccccc3o2)c2nnnn2C2CCCCC2)CC1 (stereo not given),inactive: 4.57%
10,N#CC1(Nc2ccccc2)CCN(Cc2ccccc2)CC1,inactive: 5.74%
11,O=C(NCC1(N2CCCCC2)CCCCC1)c1ccc(Cl)s1,inactive: 2.72%
12,CCCCn1nnnc1C(c1cccs1)N1CCC(n2c(=O)[nH]c3ccccc32)CC1 (stereo not given),inactive: -3.81%
13,CCCCn1nnnc1C(CC)N1CCC(n2c(=O)[nH]c3ccccc32)CC1 (stereo not given),inactive: 3.33%
14,O=C(NCC1(N2CCCCC2)CCCCC1)c1cccs1,inactive: -2.67%
15,O=C(NCC1(N2CCCCC2)CCCCC1)c1ccc(=O)[nH]c1,inactive: -10.5%
16,CCC(c1nnnn1C1CCCC1)N1CCC(n2c(=O)[nH]c3ccccc32)CC1 (stereo not given),inactive: -5.18%
17,COc1ccc(C(=O)NCC2(N3CCCCC3)CCCCC2)c(OC)c1OC,inactive: -1.8%
18,CC(C)(C)OC(=O)N1CCC(N(C(=O)c2ccccc2)c2ccc(F)cc2)CC1,inactive: -0.65%
19,COc1ccc(C(=O)NCC2(N3CCCCC3)CCCCC2)cc1,inactive: 1.36%
20,Cc1cccc(NC2(C#N)CCN(Cc3ccccc3)CC2)c1,inactive: 1.06%
21,CSc1ccccc1C(=O)NCC1(N2CCCCC2)CCCCC1,inactive: 5.81%
22,O=c1[nH]c2ccccc2n1C1CCN(C(c2ccccc2)c2nnnn2C2CCCCC2)CC1 (stereo not given),inactive: 1.55%

row,SMILES,activity
1,O=c1[nH]c2ccccc2n1C1CCN(C(c2cccc3ccccc23)c2nnnn2C2CCCC2)CC1 (stereo not given),inactive: 5.99%
2,COc1cc(C(=O)NCC2(N(C)C)CCCCC2)ccc1OC(F)F,inactive: -5.62%
3,CCOC(=O)N1CCC(Nc2cccc(C)c2)CC1,inactive: 2.31%
4,CCOc1ccc(C)cc1CN(CCCl)CCCl,inactive: 2.58%
5,O=C1CCN(Cc2ccccc2)CC1,inactive: 3.91%
6,CC(C)(C)n1nnnc1C(c1ccccc1)N1CCC(n2c(=O)[nH]c3ccccc32)CC1 (stereo not given),inactive: -2.26%
7,COc1ccc(NC2CCN(CCc3ccccc3)CC2)c(OC)c1,inactive: 0.91%
8,CCOC(=O)N1CCC(Nc2ccc(F)cc2)CC1,inactive: 6.52%
9,O=C(NCC1(N2CCCCC2)CCCCC1)c1ccc(F)cc1,inactive: -5.68%
10,O=P1(N(CCCl)CCCl)SCCCS1,inactive: 5%
11,CCCCn1nnnc1C(c1cc2ccccc2o1)N1CCC(n2c(=O)[nH]c3ccccc32)CC1 (stereo not given),inactive: -0.14%
12,CCCCOc1ccc(C(=O)NCC2(N3CCOCC3)CCCCC2)cc1,inactive: 1.63%
13,O=C(NCC1(N2CCCCC2)CCCCC1)c1cccc(C(F)(F)F)c1,inactive: 3.55%
14,CCCCn1nnnc1C(c1cccc2ccccc12)N1CCC(n2c(=O)[nH]c3ccccc32)CC1 (stereo not given),inactive: 6.66%
15,CN1CCN(CCOC(=O)C(O)(c2ccccc2)c2ccccc2)CC1,inactive: 1.05%
16,COc1ccc(NC2CCN(C(=O)OC(C)(C)C)CC2)cc1,inactive: 6.23%
17,CC(C)c1ccc(C(=O)NCC2(N3CCOCC3)CCCCC2)cc1,inactive: 0.85%
18,COc1cc(C(=O)NCC2(N3CCCCC3)CCCCC2)ccc1OC(F)F,inactive: -2.48%
19,O=C(NCC1(N2CCOCC2)CCCCC1)c1cc(=O)[nH]c2ccccc12,inactive: -4.25%
20,O=C(NCC1(N2CCCCC2)CCCCC1)c1ccc(OC(F)F)cc1,inactive: -0.1%
21,CC(C)(C)n1nnnc1C(c1ccccc1OC(F)(F)F)N1CCC(n2c(=O)[nH]c3ccccc32)CC1 (stereo not given),inactive: -3.82%
22,CSc1ccc(C(=O)NCC2(N3CCOCC3)CCCCC2)cc1,inactive: 7.73%

row,SMILES,activity
1,O=C(NCC1(N2CCCCC2)CCCCC1)c1cccc([N+](=O)[O-])c1,inactive: 4.37%
2,N#CC1(Nc2ccccc2)CCN(CCc2ccccc2)CC1,inactive: -5.45%
3,O=c1[nH]c2ccccc2n1C1CCN(C(c2ccccc2OC(F)(F)F)c2nnnn2C2CCCC2)CC1 (stereo not given),inactive: 2.43%
4,CCN1CCC(Nc2ccc(Cl)cc2)CC1,inactive: -3.39%
5,O=C(NCC1(N2CCCCC2)CCCCC1)c1cncc(Br)c1,inactive: 2.46%
6,CN1CCC(Nc2cccc(F)c2)CC1,inactive: -2.29%
7,CCCOc1ccc(C(=O)NCC2(N(C)C)CCCCC2)cc1OC,inactive: -4.33%
8,Cc1ccc(C(=O)NCC2(N(C)C)CCCCC2)o1,inactive: 2.48%
9,COc1ccc(C(c2nnnn2C2CCCC2)N2CCC(n3c(=O)[nH]c4ccccc43)CC2)cc1 (stereo not given),inactive: 10.2%
10,CN(C)c1cccc(C(=O)NCC2(N3CCCCC3)CCCCC2)c1,inactive: 1.86%
11,COC(=O)C1(Nc2ccccc2)CCN(Cc2ccccc2)CC1,inactive: -5.98%
12,COc1ccc(CN(CCCl)CCCl)cc1Cl,inactive: -7.44%
13,CC(C)c1ccc(NC2CCN(C(=O)OC(C)(C)C)CC2)cc1,inactive: -6.22%
14,CCCCn1nnnc1C(c1ccnc2ccccc12)N1CCC(n2c(=O)[nH]c3ccccc32)CC1 (stereo not given),inactive: -0.93%
15,CCC(c1nnnn1C(C)(C)C)N1CCC(n2c(=O)[nH]c3ccccc32)CC1 (stereo not given),inactive: -0.62%
16,O=C(NCC1(N2CCOCC2)CCCCC1)c1cc(F)c(F)cc1Cl,inactive: -3.29%
17,COc1cc(OC)c(C(=O)NCC2(N(C)C)CCCCC2)cc1OC,inactive: 1.08%
18,N/C(=N\O)c1c(N)no[n+]1[O-],inactive: -3.76%
19,COc1cccc(C(c2nnnn2C(C)(C)C)N2CCC(n3c(=O)[nH]c4ccccc43)CC2)c1OC (stereo not given),inactive: 3.54%
20,CCOC(=O)N1CCC(Nc2ccc(C)cc2)CC1,inactive: 0.21%
21,CCCCn1nnnc1C(c1cccc(OC)c1OC)N1CCC(n2c(=O)[nH]c3ccccc32)CC1 (stereo not given),inactive: 0.09%
22,O=c1[nH]c2ccccc2n1C1CCN(C(c2cccs2)c2nnnn2C2CCCC2)CC1 (stereo not given),inactive: -2.77%

row,SMILES,activity
1,O=C(OC1CN2CCC1CC2)C1c2ccccc2C=Cc2ccccc21 (stereo not given),inactive: 3.43%
2,O=C(NCC1(N2CCOCC2)CCCCC1)c1cc(Br)ccc1Cl,inactive: -3.36%
3,COc1cc(C(=O)NCC2(N3CCOCC3)CCCCC2)cc(OC)c1C,inactive: -4.39%
4,CCCCn1nnnc1C(c1ccccc1)N1CCC(n2c(=O)[nH]c3ccccc32)CC1 (stereo not given),inactive: -8.59%
5,O=c1[nH]c2ccccc2n1C1CCN(C(c2ccnc3ccccc23)c2nnnn2C2CCCC2)CC1 (stereo not given),inactive: -6.84%
6,COc1ccc(C(=O)NCC2(N3CCOCC3)CCCCC2)cc1OC,inactive: -0.92%
7,NC(=O)C1(Nc2ccccc2)CCN(Cc2ccccc2)CC1,inactive: -0.47%
8,O=c1[nH]c2ccccc2n1C1CCN(C(c2cccs2)c2nnnn2C2CCCCC2)CC1 (stereo not given),inactive: -1.6%
9,O=c1[nH]c2ccccc2n1C1CCN(C(c2ccccc2)c2nnnn2C2CCCC2)CC1 (stereo not given),inactive: 0.12%
10,CCCN1CCC(Nc2cc(OC)cc(OC)c2)CC1,inactive: 1.08%
11,Cc1cc(N(CCCl)CCCl)ccc1C=O,inactive: -3.63%
12,c1ccc(CN2CCC(Nc3ccccc3)CC2)cc1,inactive: -4.73%
13,C/C(N)=N\P(=O)(Oc1ccccc1)Oc1ccccc1,inactive: 5.19%
14,CN(C)C1(CNC(=O)c2cccc(C#N)c2)CCCCC1,inactive: 2.19%
15,CC(C)(C)n1nnnc1C(c1cccc2ccccc12)N1CCC(n2c(=O)[nH]c3ccccc32)CC1 (stereo not given),inactive: 5.87%
16,CC(C)(C)OC(=O)N1CCC(N(C(=O)c2ccccc2)c2ccc(Cl)cc2)CC1,inactive: -0.83%
17,N#Cc1ccc(C(=O)NCC2(N3CCCCC3)CCCCC2)cc1,inactive: 4.59%
18,CC(C)(C)n1nnnc1C(c1ccnc2ccccc12)N1CCC(n2c(=O)[nH]c3ccccc32)CC1 (stereo not given),inactive: 0.35%
19,COc1ccc(C(c2nnnn2C2CCCCC2)N2CCC(n3c(=O)[nH]c4ccccc43)CC2)cc1 (stereo not given),inactive: 3.97%
20,CCN1CCC(Nc2cccc(F)c2)CC1,inactive: -0.37%
21,Cc1ccccc1NC1(C#N)CCN(Cc2ccccc2)CC1,inactive: -1.78%
22,Cn1c(=O)[nH]cc(N(CCCl)CCCl)c1=O,inactive: -1.68%

row,SMILES,activity
1,CN(C)c1ccc(C(=O)NCC2(N3CCCCC3)CCCCC2)cc1,inactive: 0.75%
2,O=C(NCC1(N2CCCCC2)CCCCC1)c1ccco1,inactive: -3.77%
3,O=c1[nH]c2ccccc2n1C1CCN(C(c2ccnc3ccccc23)c2nnnn2C2CCCCC2)CC1 (stereo not given),inactive: -4.48%
4,COc1cc(OC)cc(C(=O)NCC2(N3CCCCC3)CCCCC2)c1,inactive: 0.27%
5,CCC(c1nnnn1C1CCCCC1)N1CCC(n2c(=O)[nH]c3ccccc32)CC1 (stereo not given),inactive: 0.95%
6,CC(=O)N(c1ccccc1)C1CCNCC1,inactive: -3.46%
7,COc1cccc(C(c2nnnn2C2CCCCC2)N2CCC(n3c(=O)[nH]c4ccccc43)CC2)c1OC (stereo not given),inactive: -2.85%
8,Cc1ccc(NC2(C#N)CCN(Cc3ccccc3)CC2)cc1,inactive: 4.38%
9,Fc1ccccc1NC1CCN(Cc2ccccc2)CC1,inactive: 0.74%
10,Cc1ccc(C(=O)NCC2(N3CCCCC3)CCCCC2)o1,inactive: -0.43%
11,CCC(CO)(C(=O)OC1CN2CCC1CC2)c1ccccc1 (stereo not given),inactive: -2.42%
12,COc1cccc(C(c2nnnn2C2CCCC2)N2CCC(n3c(=O)[nH]c4ccccc43)CC2)c1OC (stereo not given),inactive: 1.25%
13,COc1cc(OC)cc(C(=O)NCC2(N3CCOCC3)CCCCC2)c1,inactive: 5.09%
14,COc1cccc(C(=O)N(c2cc(C)cc(C)c2)C2CCN(C(=O)OC(C)(C)C)CC2)c1,inactive: 9.28%
15,CN1CCC(Nc2ccc(Cl)cc2)CC1,inactive: 0.98%
16,CN1CCC(Nc2ccc(F)c(Cl)c2)CC1,inactive: 3.29%
17,CCOc1ncccc1C(=O)NCC1(N2CCOCC2)CCCCC1,inactive: 1.85%
18,CCCOc1ccc(C(=O)NCC2(N(C)C)CCCCC2)cc1,inactive: -3.02%
19,O=c1[nH]c2ccccc2n1C1CCN(C(c2cc3ccccc3o2)c2nnnn2C2CCCC2)CC1 (stereo not given),inactive: -0.06%
20,O=C(O)C1(Nc2ccccc2)CCN(Cc2ccccc2)CC1,inactive: -1.33%
21,NN(c1ccccc1)C1CCN(CCc2ccccc2)CC1,inactive: 3.92%
22,CC(C)(C)OC(=O)N1CCC(Nc2ccccc2)CC1,inactive: 4.17%

# Reference: PubChem BioAssay AID1259318 (Sanford-Burnham Center for Chemical Genomics, 2017)
